Test results reported in US20250129328A1, “AN ISOLATED S. SALIVARIUS STRAIN AND ITS USE AS AN ANTIMICROBIAL PRODUCING PROBIOTIC” (priority 2021, published 2025).

What follows are compounds tested on S. salivarius DPC6487 (assay: not given). Conditions: VetMIC Lact-1/Lact-2, anaerobic, 37° C., 48 h.

Compound	MIC for S. salivarius DPC6487
Gentamycin	8 mg/L
Neomycin	16 mg/L
Penicillin	0.12 mg/L
Quinupristin-dalfopristin	1 mg/L

What follows are compounds tested on S. salivarius DPC6487 (assay: microbe, parasite or virus in culture). Conditions: Streptococcus salivarius, DPC6487, 48 h, read-out: MIC for S. salivarius DPC6487.

Compound	MIC
CC1(C)S[C@@H]2[C@H](NC(=O)[C@H](N)c3ccccc3)C(=O)N2[C@H]1C(=O)O [Ampicillin]	0.5 mg/L (≈ 1.43 µM)
O=C(N[C@H](CO)[C@H](O)c1ccc([N+](=O)[O-])cc1)C(Cl)Cl [Chloramphenicol]	2 mg/L (≈ 6.19 µM)
CC[C@H]1OC(=O)[C@H](C)[C@@H](O[C@H]2C[C@@](C)(OC)[C@@H](O)[C@H](C)O2)[C@H](C)[C@@H](O[C@@H]2O[C@H](C)C[C@H](N(C)C)[C@H]2O)[C@](C)(O)C[C@@H](C)C(=O)[C@H](C)[C@@H](O)[C@]1(C)O [Erythromycin]	1 mg/L (≈ 1.36 µM)
CC(=O)NC[C@H]1CN(c2ccc(N3CCOCC3)c(F)c2)C(=O)O1 [Linezolid]	1 mg/L (≈ 2.96 µM)
CN(C)[C@@H]1C(O)=C(C(N)=O)C(=O)[C@@]2(O)C(O)=C3C(=O)c4c(O)cccc4[C@@](C)(O)[C@H]3C[C@@H]12 [Tetracycline]	1 mg/L (≈ 2.25 µM)
COc1cc(Cc2cnc(N)nc2N)cc(OC)c1OC [Trimethoprim]	8 mg/L (≈ 27.6 µM)
CN[C@H](CC(C)C)C(=O)N[C@H]1C(=O)N[C@@H](CC(N)=O)C(=O)N[C@H]2C(=O)N[C@H]3C(=O)N[C@H](C(=O)N[C@H](C(=O)O)c4cc(O)cc(O)c4-c4cc3ccc4O)[C@H](O)c3ccc(c(Cl)c3)Oc3cc2cc(c3O[C@@H]2O[C@H](CO)[C@@H](O)[C@H](O)[C@H]2O[C@H]2C[C@](C)(N)[C@H](O)[C@H](C)O2)Oc2ccc(cc2Cl)[C@H]1O [Vancomycin]	0.5 mg/L (≈ 0.345 µM)

≈ marks a conversion by molar mass, not a printed value.
